The numbers were not newly measured in patent publication US6156316A, “Oncogene fusion protein peptide vaccines” (Sloan-Kettering Institute for Cancer Research, priority 1995, dated 2000), which cites them from elsewhere.

For this data set the following is noted: at the dose level proposed; cited from earlier work.

As for QS-21, the safety / toxicity result is “safe and relatively nontoxic”.
